The source of these data is patent publication US6680379B1, “Organic anion transporter genes and proteins” (Metabasis Therapeutics, Inc., priority 1999, dated 2004).

The target in this assay is T1, hOAT2A (Homo sapiens, UniProt Q9Y694).
T1 sequence (Q9Y694 1-546 isoform Q9Y694-2): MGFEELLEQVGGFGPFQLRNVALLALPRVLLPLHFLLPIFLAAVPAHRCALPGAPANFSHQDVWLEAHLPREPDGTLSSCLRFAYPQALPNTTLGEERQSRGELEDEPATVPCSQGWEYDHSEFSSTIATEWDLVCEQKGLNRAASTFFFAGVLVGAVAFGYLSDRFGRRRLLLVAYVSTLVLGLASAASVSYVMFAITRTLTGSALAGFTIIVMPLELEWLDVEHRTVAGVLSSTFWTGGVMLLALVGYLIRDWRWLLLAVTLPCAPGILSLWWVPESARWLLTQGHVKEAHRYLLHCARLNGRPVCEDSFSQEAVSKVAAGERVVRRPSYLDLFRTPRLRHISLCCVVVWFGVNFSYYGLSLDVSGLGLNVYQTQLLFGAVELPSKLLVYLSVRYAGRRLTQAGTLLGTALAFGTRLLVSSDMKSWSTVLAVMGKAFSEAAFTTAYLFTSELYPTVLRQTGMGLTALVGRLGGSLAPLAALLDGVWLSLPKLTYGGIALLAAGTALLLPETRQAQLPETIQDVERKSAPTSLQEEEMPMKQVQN
As to the kind of experiment: Competition assay of 3H-PAH uptake in EcR293/OAT2A cells. The assay is classed as cell-based. Conditions: 500 μM competitor. On the set-up: Isolation of Full-length Human OAT2A and OAT2B cDNA; expressed in transfected cells; host or cells: EcR293 (Invitrogen). On the procedure:
EcR293/OAT2A cells were assayed for transport of ^3H-PAH as in Example 7. […]. The competition assay thus identified BSP and not AKG as a preferred substrate of hOAT2A.

Turning to α-ketoglutarate [AKG], the “effect on uptake of 3H-PAH in EcR293/OAT2A cells” value was “not”.
